## Antibody variant affinities, Ab-91 heavy chain, assay 2

Binding partner: SARS-CoV-2 spike HR2 peptide, sequence PDVDLGDISGINAS.

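Variants in AAYL51 differ from the parent at up to three CDR positions; double and triple changes were sampled at random. The scFvs were displayed on barcoded MATa yeast, the peptide on MATalpha yeast. The frequency of each diploid, read from paired DNA barcodes, reflects how well the two displayed proteins bind. Scores were corrected for input abundance and mapped to Kd with protein pairs of known affinity run in the same pool. There are three technical replicates.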

Ab-91 is the parent antibody, in scFv form: VL, then a 15-residue (Gly4Ser)3 linker, then VH. The light chain is unchanged in all variants.
VL: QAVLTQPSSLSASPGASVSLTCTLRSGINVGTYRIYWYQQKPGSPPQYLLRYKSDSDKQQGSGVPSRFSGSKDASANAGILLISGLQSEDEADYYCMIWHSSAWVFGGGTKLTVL
VH: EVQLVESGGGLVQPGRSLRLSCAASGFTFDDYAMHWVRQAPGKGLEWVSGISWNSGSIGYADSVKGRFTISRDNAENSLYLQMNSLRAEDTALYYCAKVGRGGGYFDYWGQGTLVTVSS

Positions count from residue 1 of the parent VH; A33K puts K in place of A. The read-out is the apparent dissociation constant on a log10 scale (nM): the lower, the stronger. A pair that was not seen in that replicate is written "nd"; this usually means weak binding, but a binder can also be missed.

changes	log10 Kd, replicates	control signals
A33K G50I I51Q	nd nd 4.54	3/9 (5.05)
F29D H35Q V64P	nd nd nd	1/9 (3.56)
D30W Y32Q D62V	3.73 4.03 4.84	1/9 (3.99)
W53Y S55H V64Y	4.28 6.48 5.38	3/9 (4.29)
F29P V64R G104R	nd nd nd	0/9
G26N F27M Y105P	4.79 4.67 5.52	7/9 (4.98)
G26H G100Q G104P	nd 5.01 nd	3/9 (4.66)
D31M S57F G104T	3.98 4.14 nd	6/9 (5.05)
D30K Y32G G59S	nd 4.13 nd	0/9
I58R A61W V64S	4.44 5.37 nd	1/9 (4.19)
T28V S55D V99Q	nd nd nd	0/9
H35W I51G S52Y	nd nd nd	0/9
D31N G56K K65A	1.65 1.67 1.25	5/9 (4.58)
S52K D62T V64Y	nd nd nd	0/9
G56E G102D D107A	1.99 2.15 1.49	6/9 (4.60)
G26K F29A D62F	nd 4.45 nd	2/9 (4.85)
D107R Y108P	1.24 1.73 1.59	0/9
H35Y I51L N54R	nd nd 1.81	0/9
I51C S52N S55D	nd nd nd	0/9
I58P V99I G104F	nd nd nd	0/9
F27G H35T I58F	nd nd nd	2/9 (4.12)
T28A S52Y G100V	3.92 5.01 nd	7/9 (4.43)
Y60R	nd 4.72 nd	4/9 (5.25)
D30P R101I G103V	4.82 nd 3.71	1/9 (3.26)
M34F K65M G103T	5.26 nd nd	2/9 (4.60)
S52N S57Q F106T	nd nd nd	0/9
Y32N R101N G104H	4.75 4.22 4.75	5/9 (4.62)
I58S	1.34 1.32 0.86	5/9 (4.04)
G26F S52A G100F	nd 6.10 nd	9/9 (5.15)
S55E K65V F106N	2.82 4.06 3.48	1/9 (3.96)
Y32Q G102Q	4.42 nd nd	0/9
V64C G104C	2.74 2.65 2.92	5/9 (4.52)
T28M K65D R101I	1.21 1.29 0.83	3/9 (4.67)
G26C T28S V99W	nd nd nd	1/9 (3.32)
F29D G102E G103L	5.63 4.69 nd	2/9 (4.12)
F27T S52K S63H	nd nd nd	4/9 (4.33)
T28K F29T S52D	nd nd 2.74	0/9
W53R Y60R K65T	4.43 nd nd	2/9 (3.55)
D62H G100S F106P	nd nd nd	0/9

The closing 2 entries, repeated:

changes	log10 Kd, replicates	control signals
W53R Y60R K65T	4.43 nd nd	2/9 (3.55)
D62H G100S F106P	nd nd nd	0/9

In this assay the parent's reference entry averaged 1.86; its copy inside this library read 0.88. Nonspecific signal, from three strains lacking the peptide, appeared in 21% of pairings of library AAYL51, centred on 4.54 (5% of these signals below 3.26); values are not corrected for it. For each scFv, signals with the empty controls are counted beside the result, with their mean in brackets.

Source: Engelhart et al. 2022 (doi:10.1038/s41597-022-01779-4), MIT Lincoln Laboratory and A-Alpha Bio; data file from the FLAb repository.